Experiments:
Type in all cases: in vivo, BALB/c mice
[1] = tested on: CD25+FoxP3+ cells in spleen CD3+CD4+ lymphocytes and PD-1+ cells in CD3+CD4+CD25+FoxP3+ cells; assay: Intraperitoneal injection in physiological model mice, spleen Treg and PD-1 by flow cytometry; settings: detected on day 4
Procedure: During the whole experiment, the mice were randomly divided into 28 groups, 6 mice in each group. The administration mode of each treatment group in AD model mice was the aforementioned patch method, the patch was prepared by wetting a 1.5×1.5 cm^2 sterile gauze in the drug solution (approximately containing 100 μL drug solution and/or 50 μL hyaluronic acid), the drugs were dissolved in PBS solution, at a concentration of 100,000 IU/ml of normal IL-2 or PEG-IL-2, 20 μg/ml of budesonide, 100 μg/mL of dexamethasone, and 50 mg/mL of hyaluronic acid (HA). Administration was continued for three consecutive days starting at day 4-5 of induced mouse dermatitis, and was changed every day, except that the administration protocol was different among groups, and the rest conditions remained consistent. After 3 days, the mice were euthanized, and the skin tissue, spleen, and blood of the administered site were taken for further detection. […]

[2] = tested on: OVA induced atopic dermatitis (AD) mouse model; assay: OVA induced atopic dermatitis (AD) mouse model, skin inflammation status scoring; settings: AD model mice, topical patch for 3 consecutive days; total score 0-12; 6 mice per group
Text: (§1) The mouse atopic dermatitis model was generated by the method with minor modifications according to the literature [JIN H, et al. Animal models of atopic dermatitis. J Invest Dermatol, 2009, 129 (1): 31-40; KIM W H, et al. Beneficial effects of melittin on ovalbumin-induced atopic dermatitis in mouse. Sci Rep, 2017, 7 (1): 17679; WANG G, et al. Repeated epicutaneous exposures to ovalbumin progressively induce atopic dermatitis-like skin lesions in mice. Clin Exp Allergy, 2007, 37 (1): 151-61]. Chicken ovalbumin (OVA) sensitized BALB/c mice were common mouse models of type I allergic diseases. 10 μg OVA was mixed with 2 mg of aluminum hydroxide in 200 μL of phosphate buffer (PBS) solution, intraperitoneally injected to sensitize mice, once every week (at day 0, 7 and 14), each mouse was injected 3 times, 200 μL each time. […] The OVA patch was prepared by wetting a 1.5×1.5 cm^2 sterile gauze in a solution of 1 mg/mL of OVA (dissolved in PBS) (approximately 100 μL of OVA solution), and was attached using a transparent dressing to the back skin after epilation and replaced daily for 3-7 days to develop dermatitis manifestation, and the status of the back skin of the mice was recorded photographically on day 4~5 after inducing mouse dermatitis (the dermatitis manifestation was most obvious), and the skin inflammation status was scored. […]

[3] = tested on: skin thickness and inflammatory cell infiltration; assay: Skin tissue pathological H&E staining in AD model mice; settings: after 3 days of topical administration
Text: The mouse atopic dermatitis model was generated by the method with minor modifications according to the literature [JIN H, et al. Animal models of atopic dermatitis. J Invest Dermatol, 2009, 129 (1): 31-40; KIM W H, et al. Beneficial effects of melittin on ovalbumin-induced atopic dermatitis in mouse. Sci Rep, 2017, 7 (1): 17679; WANG G, et al. Repeated epicutaneous exposures to ovalbumin progressively induce atopic dermatitis-like skin lesions in mice. Clin Exp Allergy, 2007, 37 (1): 151-61]. Chicken ovalbumin (OVA) sensitized BALB/c mice were common mouse models of type I allergic diseases. 10 μg OVA was mixed with 2 mg of aluminum hydroxide in 200 μL of phosphate buffer (PBS) solution, intraperitoneally injected to sensitize mice, once every week (at day 0, 7 and 14), each mouse was injected 3 times, 200 μL each time. On day 14, mice were anesthetized using pentobarbital intraperitoneal injection. During anesthesia, the back skin hair was removed with electric clipper and depilatory paste, and after clearing, the medical adhesive tape was directly pasted on the back skin for several seconds and then torn off, repeated about 4 times to destroy the stratum corneum on the surface of skin, and then the OVA patch was pasted on the mouse skin to induce atopic (allergic) dermatitis in mice. […]

[4] = tested on: CD25+FOXP3+ Treg cells in skin CD4+ cells; assay: Ratio of Treg cells in skin of AD model mice via flow cytometry; settings: after 3 days of topical administration
Text: as §1

Row | Substance | up-regulation of FoxP3+ regulatory T cells in spleen (in words) [1] | Dermatitis score (χ ± s) [2] | skin thickness and inflammatory cell infiltration in pathological section (in words) [3] | effect on proportion of Treg cells in skin (in words) [4]
1 | 20 kD PEG-IL-2: recombinant human IL-2 modified with 20 kDa non-branched PEG (M-ALD-20 kD) | did not up-regulate Tregs |  |  | 
2 | 40 kD PEG-IL-2: recombinant human IL-2 modified with 40 kDa non-branched PEG (M-ALD-40 kD) | did not up-regulate Tregs | 2.667 ± 0.516 ^ | no significant improvement | no significant change

From patent US20260232768A1, “TREATMENT OF ATOPIC DERMATITIS WITH POLYETHYLENE GLYCOL-MODIFIED INTERLEUKIN 2, GLUCOCORTICOID AND HYALURONIC ACID” (priority 2023, published 2026)
